Results on 30 compounds are retold here after US7759499B2, “Compounds as inhibitors of hepatitis C virus NS3 serine protease” (Schering Corporation, priority 2004, dated 2010).

Protein sequences, listed by entry. Tags and fused reporters are not part of them. Residues count along the entry.
UniProt P27958, 1027-1657: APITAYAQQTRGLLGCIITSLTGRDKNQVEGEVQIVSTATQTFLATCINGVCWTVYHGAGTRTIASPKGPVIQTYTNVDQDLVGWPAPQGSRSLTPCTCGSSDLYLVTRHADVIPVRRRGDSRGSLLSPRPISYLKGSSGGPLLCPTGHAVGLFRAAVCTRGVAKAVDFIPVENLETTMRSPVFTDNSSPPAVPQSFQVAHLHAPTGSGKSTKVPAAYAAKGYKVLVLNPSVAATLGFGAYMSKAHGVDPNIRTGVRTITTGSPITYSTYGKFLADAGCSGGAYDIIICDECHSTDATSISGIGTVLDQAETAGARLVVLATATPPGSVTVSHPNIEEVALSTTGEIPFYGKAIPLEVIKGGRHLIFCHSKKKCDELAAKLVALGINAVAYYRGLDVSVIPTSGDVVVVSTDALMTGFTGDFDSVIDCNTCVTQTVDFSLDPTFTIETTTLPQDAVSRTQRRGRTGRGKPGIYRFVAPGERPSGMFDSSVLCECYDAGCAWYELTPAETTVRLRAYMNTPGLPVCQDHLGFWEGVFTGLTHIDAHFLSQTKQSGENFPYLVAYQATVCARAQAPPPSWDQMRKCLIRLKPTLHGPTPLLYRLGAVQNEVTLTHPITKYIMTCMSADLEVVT
UniProt P27958, 1658-1711: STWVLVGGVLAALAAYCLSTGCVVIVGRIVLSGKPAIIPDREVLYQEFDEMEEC

pKi: −log10 of the molar value.

The first assay deals with Recombinant heterodimeric HCV NS3/NS4A protease (strain 1a) (Hepatitis C virus genotype 1a, UniProt P27958). Put plainly: Spectrophotometric assay for HCV protease inhibitory activity. It counts as biochemical. As to conditions: Table 1, range.
As a reminder, the pKi is the Ki on a negative log10 scale, so that one unit is a factor of ten. Turning to `C=CCNC(=O)C(=O)C(CCC)NC(=O)[C@@H]1[C@@H]2[C@H](CN1C(=O)[C@@H](NC(=O)N[C@H](CN(C)S(=O)(=O)N1CCOCC1)C(C)(C)C)C(C)(C)C)C2(C)C` (stereo partly shown) [Compound 10081], the pKi was at least 7.12.
Same read-out and setting: the result for `C=CCNC(=O)C(=O)C(CC1CCC1)NC(=O)[C@@H]1[C@@H]2[C@H](CN1C(=O)[C@@H](NC(=O)N[C@H](CN(C)S(=O)(=O)N(C)C)C(C)(C)C)C1CCCCC1)C2(C)C` (stereo partly shown) [Compound 10056] reads at least 7.12; that for `C=CCNC(=O)C(=O)C(CC1CC1)NC(=O)[C@@H]1[C@@H]2[C@H](CN1C(=O)[C@@H](NC(=O)N[C@H](CN(C)S(=O)(=O)N1CCCCC1)C(C)(C)C)C(C)(C)C)C2(C)C` (stereo partly shown) [Compound 10069], at least 7.12.
Turning to `C=CCNC(=O)C(=O)C(CCC(F)(F)F)NC(=O)[C@@H]1[C@@H]2[C@H](CN1C(=O)[C@@H](NC(=O)N[C@H](CNS(=O)(=O)N(C)C)C(C)(C)C)C(C)(C)C)C2(C)C` (stereo partly shown) [Compound 10037], the pKi is at least 7.12.
On the same count and under the same terms, the result for `C#CCCC(NC(=O)[C@@H]1[C@@H]2[C@H](CN1C(=O)[C@@H](NC(=O)N[C@H](CN(C)S(=O)(=O)N(C)C(=O)OC(C)(C)C)C(C)(C)C)C(C)(C)C)C2(C)C)C(=O)C(=O)NCC=C` (stereo partly shown) [Compound 10087] reads at least 7.12.

The same assay, now with this note: Table 2, range.
As for `C=CCNC(=O)C(=O)C(CCCC)NC(=O)[C@@H]1[C@@H]2[C@H](CN1C(=O)[C@@H](NC(=O)N[C@H](CN(C)S(=O)(=O)c1ccccn1)C(C)(C)C)C(C)(C)C)C2(C)C` (stereo partly shown) [Compound 11218], the pKi is at least 7.12.
For the compound `CCCCC(NC(=O)[C@@H]1[C@@H]2[C@H](CN1C(=O)[C@@H](NC(=O)N[C@H](CN(C)S(=O)(=O)c1ccccn1)C(C)(C)C)C1CCCCC1)C2(C)C)C(=O)C(=O)NC` (stereo partly shown) [Compound 11316], the pKi was at least 7.12.
Consider `CN(C[C@@H](NC(=O)N[C@H](C(=O)N1C[C@H]2[C@@H]([C@H]1C(=O)NC(CC1CCC1)C(=O)C(N)=O)C2(C)C)C1(C)CCCCC1)C(C)(C)C)S(C)(=O)=O` (stereo partly shown) [Compound 11252], for which the negative-log Ki (pKi) was at least 7.12.
Consider `C=CCNC(=O)C(=O)C(CCCC)NC(=O)[C@@H]1[C@@H]2[C@H](CN1C(=O)[C@@H](NC(=O)NC[C@@H](N(C)S(=O)(=O)c1ccccc1)C(C)(C)C)C1CCCCC1)C2(C)C` (stereo partly shown) [Compound 11311], for which the pKi was below 6.60.
For the compound `C=CCNC(=O)C(=O)C(CC1CC1)NC(=O)[C@@H]1[C@@H]2[C@H](CN1C(=O)[C@@H](NC(=O)N[C@H](CN(C)S(=O)(=O)c1ccc(Br)s1)C(C)(C)C)C(C)(C)C)C2(C)C` (stereo partly shown) [Compound 11339], the pKi was at least 7.12.
As to `C=CCNC(=O)C(=O)C(CC1CC1)NC(=O)[C@@H]1[C@@H]2[C@H](CN1C(=O)[C@@H](NC(=O)N[C@H](CN(C)S(=O)(=O)c1ccc(F)cc1F)C(C)(C)C)C(C)(C)C)C2(C)C` (stereo partly shown) [Compound 11352], the pKi is at least 7.12.
On to `C=CCNC(=O)C(=O)C(CCC)NC(=O)[C@@H]1[C@@H]2[C@H](CN1C(=O)[C@@H](NC(=O)N[C@H](CN(C)S(=O)(=O)c1ccccc1)C(C)(C)C)C(C)(C)C)C2(C)C` (stereo partly shown) [Compound 11074], for which the pKi is at least 7.12.
For `C#CCCC(NC(=O)[C@@H]1[C@@H]2[C@H](CN1C(=O)[C@@H](NC(=O)N[C@H](CN(CC)S(=O)(=O)c1cccs1)C(C)(C)C)C(C)(C)C)C2(C)C)C(=O)C(=O)NCC=C` (stereo partly shown) [Compound 11232], the pKi was at least 7.12.
On to `C=CCNC(=O)C(=O)C(CCC)NC(=O)[C@@H]1[C@@H]2[C@H](CN1C(=O)[C@@H](NC(=O)NC1(CN(C)S(C)(=O)=O)CCCCC1)C1CCCCC1)C2(C)C` (stereo partly shown) [Compound 11067], for which the pKi was at least 7.12.
In the case of `C=CCNC(=O)C(=O)C(CC1CC1)NC(=O)[C@@H]1[C@@H]2[C@H](CN1C(=O)[C@@H](NC(=O)N[C@H](CN(C)S(C)(=O)=O)C(C)(C)C)C1CCCCC1)C2(C)C` (stereo partly shown) [Compound 11049], the pKi was at least 7.12.
Same read-out and setting: the result for `CN(CC1(NC(=O)N[C@H](C(=O)N2C[C@H]3[C@@H]([C@H]2C(=O)NC(CC2CCC2)C(=O)C(N)=O)C3(C)C)C(C)(C)C)CCCCC1)S(=O)(=O)c1ccccc1` (stereo partly shown) [Compound 11007] reads at least 7.12; that for `C=CCNC(=O)C(=O)C(CC1CC1)NC(=O)[C@@H]1[C@@H]2[C@H](CN1C(=O)[C@@H](NC(=O)N[C@H](CN(C)S(=O)(=O)C1CC1)CC(C)(C)C)C(C)(C)C)C2(C)C` (stereo partly shown) [Compound 11107], 6.60 to 7.12.
Same read-out and setting: the result for `C=CCNC(=O)C(=O)C(CCCC)NC(=O)[C@@H]1[C@@H]2[C@H](CN1C(=O)[C@@H](NC(=O)N[C@H](CN(C)S(=O)(=O)c1ccccc1Cl)C(C)(C)C)C(C)(C)C)C2(C)C` (stereo partly shown) [Compound 11351] reads at least 7.12; that for `C=CCNC(=O)C(=O)C(CC1CC1)NC(=O)[C@@H]1[C@@H]2[C@H](CN1C(=O)[C@@H](NC(=O)N[C@H](CN(C)S(=O)(=O)c1cccc(Cl)c1)C(C)(C)C)C(C)(C)C)C2(C)C` (stereo partly shown) [Compound 11348], at least 7.12; that for `C=CCNC(=O)C(=O)C(CCCC)NC(=O)[C@@H]1[C@@H]2[C@H](CN1C(=O)[C@@H](NC(=O)N[C@H](CN(C)S(=O)(=O)c1ccccn1)C(C)(C)C)C1(C)CCCCC1)C2(C)C` (stereo partly shown) [Compound 11366], at least 7.12.
On the same count and under the same terms, the result for `C=CCNC(=O)C(=O)C(CCCC)NC(=O)[C@@H]1[C@@H]2[C@H](CN1C(=O)[C@@H](NC(=O)N[C@H](CN(C)S(=O)(=O)c1cccc(C#N)c1)C(C)(C)C)C(C)(C)C)C2(C)C` (stereo partly shown) [Compound 11320] reads at least 7.12.
For the compound `CCCC(NC(=O)[C@@H]1[C@@H]2[C@H](CN1C(=O)[C@@H](NC(=O)N[C@H](CN(C)S(=O)(=O)c1cccs1)C(C)(C)C)C(C)(C)C)C2(C)C)C(=O)C(=O)NCC` (stereo partly shown) [Compound 11106], the pKi is at least 7.12.

The same assay, now with this note: Table 3, range.
Turning to `CC(C)[C@@H](CNS(=O)(=O)c1cccs1)NC(=O)N[C@H](C(=O)N1C[C@H]2[C@@H]([C@H]1C(=O)NC(CC1CCC1)C(=O)C(N)=O)C2(C)C)C(C)(C)C` (stereo partly shown) [Compound 12009], the pKi is at least 7.12.
Regarding `CC(C)(C)[C@H](NC(=O)NC1(CNS(C)(=O)=O)CCCCC1)C(=O)N1C[C@H]2[C@@H]([C@H]1C(=O)NC(CC1CCC1)C(=O)C(N)=O)C2(C)C` (stereo partly shown) [Compound 12020], the pKi is at least 7.12.

The assay is the same for the next values; noted with them: Table 4, range.
As to `CC(=O)N(C)C[C@@H](NC(=O)N[C@H](C(=O)N1C[C@H]2[C@@H]([C@H]1C(=O)NC(CC1CCC1)C(=O)C(N)=O)C2(C)C)C(C)(C)C)C(C)(C)C` (stereo partly shown) [Compound 13002], the pKi was at least 7.12.
On the same count and under the same terms, for `CC(C)(C)[C@@H](CNC(=O)c1cnccn1)NC(=O)N[C@H](C(=O)N1C[C@H]2[C@@H]([C@H]1C(=O)NC(CC1CCC1)C(=O)C(N)=O)C2(C)C)C1CCCCC1` (stereo partly shown) [Compound 13030] the value was at least 7.12; for `C=CCNC(=O)C(=O)C(CCC(F)(F)F)NC(=O)[C@@H]1[C@@H]2[C@H](CN1C(=O)[C@@H](NC(=O)N[C@H](CN(C)C(C)=O)C(C)(C)C)C(C)(C)C)C2(C)C` (stereo partly shown) [Compound 13010], at least 7.12.

Staying with this assay, now noted: Table 5, range.
`C=CCNC(=O)C(=O)C(CC1CC1)NC(=O)[C@@H]1[C@@H]2[C@H](CN1C(=O)[C@@H](NC(=O)N[C@H](CN(C)C(=O)OC)C(C)C)C(C)(C)C)C2(C)C` (stereo partly shown) [Compound 14036]: the pKi was 6.60 to 7.12.

Still in this assay, the particulars now being: Table 5A, range.
Turning to `CCCC(NC(=O)[C@@H]1[C@@H]2[C@H](CN1C(=O)[C@@H](NC(=O)N[C@H](CN(C)S(=O)(=O)CC)C(C)(C)C)C1Cc3ccccc3C1)C2(C)C)C(=O)C(=O)NCc1nccs1` (stereo partly shown) [Compound 11420], the pKi was at least 7.12.

The assay is the same for the next values; noted with them: Table 6.
`CCCC(NC(=O)[C@@H]1[C@@H]2[C@H](CN1C(=O)[C@@H](NC(=O)N[C@H](CN(C)S(=O)(=O)CC)C(C)(C)C)C1Cc3ccccc3C1)C2(C)C)C(=O)C(=O)NCc1nccs1` (stereo partly shown) [Compound 11420]: the pKi was 8.10.
On the same count and under the same terms, for `C=CCNC(=O)C(=O)C(CC1CC1)NC(=O)[C@@H]1[C@@H]2[C@H](CN1C(=O)[C@@H](NC(=O)N[C@H](CN(C)S(=O)(=O)c1cccs1)C(C)(C)C)C(C)(C)C)C2(C)C` (stereo partly shown) [drawing 53] the value was 7.52.
